Data: PubChem BioAssay (NCATS)
The list shows a part of the results, in another mix than the full data. Records with an inconclusive call do not appear. Calls of active or inactive are those of the source. Unless noted, calls follow the shape of the dose curve; as a rule, active = well fitted curve in the direction sought with a large enough effect; inconclusive = small, poorly fitted or top-dose-only effect, or another doubt; inactive = no such curve, though single readings can be large; an effect the other way counts as inactive or inconclusive.

Protein sequences, listed by entry. Tags and fused reporters are not part of them. Lines headed by an entry give the natural chain unless they say otherwise; changes in a name come on top.
UniProt Q99828: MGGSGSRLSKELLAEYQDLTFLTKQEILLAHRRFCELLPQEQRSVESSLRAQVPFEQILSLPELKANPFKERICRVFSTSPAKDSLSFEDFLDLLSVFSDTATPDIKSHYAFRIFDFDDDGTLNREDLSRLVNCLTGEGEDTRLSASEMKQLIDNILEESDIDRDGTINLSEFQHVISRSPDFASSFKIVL
UniProt P36969, whole entry, looked up: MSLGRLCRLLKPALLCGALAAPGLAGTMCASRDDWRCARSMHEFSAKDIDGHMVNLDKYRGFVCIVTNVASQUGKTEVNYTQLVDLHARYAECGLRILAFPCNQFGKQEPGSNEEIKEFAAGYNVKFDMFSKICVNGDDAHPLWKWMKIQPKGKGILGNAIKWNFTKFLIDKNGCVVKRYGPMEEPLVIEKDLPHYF
UniProt A8B2U2: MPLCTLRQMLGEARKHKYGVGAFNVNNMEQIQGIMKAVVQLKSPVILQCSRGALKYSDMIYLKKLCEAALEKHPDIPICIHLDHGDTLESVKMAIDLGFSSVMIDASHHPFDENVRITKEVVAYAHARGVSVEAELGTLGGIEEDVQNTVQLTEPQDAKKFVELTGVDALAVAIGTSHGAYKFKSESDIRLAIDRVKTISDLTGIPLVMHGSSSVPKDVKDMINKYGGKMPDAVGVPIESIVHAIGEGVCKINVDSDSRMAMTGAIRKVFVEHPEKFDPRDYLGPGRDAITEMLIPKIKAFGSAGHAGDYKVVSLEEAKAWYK
UniProt P00883: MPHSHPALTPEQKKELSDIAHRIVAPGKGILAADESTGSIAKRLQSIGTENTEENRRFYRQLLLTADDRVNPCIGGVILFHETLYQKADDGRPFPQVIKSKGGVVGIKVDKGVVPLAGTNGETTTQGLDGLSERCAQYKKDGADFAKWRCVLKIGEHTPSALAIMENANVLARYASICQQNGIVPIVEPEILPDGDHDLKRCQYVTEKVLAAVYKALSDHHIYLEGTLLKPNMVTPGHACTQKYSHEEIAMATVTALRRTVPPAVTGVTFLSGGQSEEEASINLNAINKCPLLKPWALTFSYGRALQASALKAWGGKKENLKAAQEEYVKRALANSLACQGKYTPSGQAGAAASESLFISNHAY

Columns and labels:
[1] = qHTS to identify inhibitors of the type 1 interferon - major histocompatibility complex class I in skeletal muscle: primary screen against the NCATS Mechanism Interrogation Plate v5.0 (MIPE) Libary (AID 1347411); details: iHSKM cells + IFN-b, HiBiT-tagged MHC-I luminescence, 24 h; at 45.8 µM (top of the series);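 also: plate controls were vehicle for no effect and reference inhibitor for full effect; nearly all actives have a fitted effect of over 65% in size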
[2] = molecular target: Calcium and integrin-binding protein 1 (Homo sapiens) (UniProt Q99828); assay: Primary qHTS for Identification of Calcium Integrin Binding Protein 1 (CIB1) Competitor (AID 1508620); details: CIB1-GST / FITC-alphaIIb peptide fluorescence polarization; at 114 µM (top of the series) unless noted;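 also: GST tagged CIB1 binding a fluorescein labelled alphaIIb integrin peptide tracer; top concentration of the series differs between compounds; % is scaled to controls: 0 for no effect and ±100 for the full control effect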
[3] = molecular target: Phospholipid hydroperoxide glutathione peroxidase GPX4 (Homo sapiens) (UniProt P36969); assay: Primary qHTS Assay for Inhibitors of Recombinant Selenoprotein Glutathione Peroxidase 4 (GPX4) (AID 1845192); details: recombinant GPX4, GR-coupled NADPH fluorescence, 15 min; activity change, negative = inhibition: at 50 µM (top of the series); also: % is scaled to controls: 0 for no effect and ±100 for the full control effect; nearly all actives have a fitted effect of over 65% in size
Summary of the method: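 NADPH consumption, followed by fluorescence at 340/450 nm between 0 and 15 min, reports GPX4 activity via coupled glutathione reductase (100 nM). Enzyme 200 nM was pre-exposed to compound 30 min; 0.5 mM cumene hydroperoxide and 1 mM GSH served as substrates.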

[4] = molecular target: Luciferin 4-monooxygenase (Photinus pyralis) (UniProt P08659); assay: Primary firefly luciferase (FLuc) qHTS assay for identification of artifact compounds. (AID 1845220); details: purified firefly luciferase, luminescence, 5 min; activity change, negative = inhibition: at 54.1 µM (top of the series); also: nearly all actives have a fitted effect of over 60% in size
Summary of the method: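 Compounds sat 15 min at room temperature with 10 uM luciferin and 10 uM ATP (pH 7.6 Tris acetate). Firefly luciferase (10 nM final) was then added, and luminescence was read 5 min later. Data normalized to no-enzyme and DMSO controls were Hill-fitted.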

[5] = Primary fluorescence-based thiol-reactive (MSTI) qHTS assay for identification of artifact compounds. (AID 1845221); details: MSTI thiol-reactivity probe, 1 h; at 53.8 µM (top of the series);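 also: thiol-reactive compounds lower the probe fluorescence signal; nearly all actives have a fitted effect of over 65% in size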
Summary of the method: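 qHTS titration of compound; 4 uM MSTI, PBS pH 7.4, 2% DMSO; 1 h RT, dark; fluorescence 525/598 nm; normalized to Acetyl-MSTI and MSTI; 4-parameter Hill fit.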

[6] = system: Nanoluciferase (engineered Oplophorus gracilirostris luciferase); assay: Primary Nanoluciferase (NLuc) qHTS assay for identification of artifact compounds. (AID 1845222); details: NLuc-conditioned medium, Nano-Glo luminescence, 5 min; at 54.1 µM (top of the series);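 also: 0% = DMSO and -100% = no enzyme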
Summary of the method: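 Luminescence from secreted NLuc (filtered, 1:55-diluted S16 cell medium) read 5 min after Nano-Glo substrate; compounds preincubated 15 min, RT. Hill fits of inhibition normalized to DMSO and no-enzyme.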

[7] = qHTS drug screen for cell cycle checkpoint inhibitors in PARPi-resistant BRCA-mutant ovarian cancer cell lines. (AID 1963452; calls by dose curve); details: PEO1/OlaR viability, CellTiter-Glo luminescence, 96 h; stronger effect = lower value
Summary of the method: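 PEO1, PEO4 and PEO1/OlaR ovarian cancer cells, 600 per well, exposed 96 h at 37C to a dilution series. Viability read by CellTiter-Glo luminescence, normalized to DMSO and empty wells; activity summarized as Z-AUC.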

CRL-7250 = normal cell line; assay: Cytotoxic Profiling of Annotated Libraries Using Quantitative High-Throughput Screening (AID 1296008); details: Five cell lines viability, CellTiter-Glo ATP luminescence, 48-72 h; stronger effect = lower value; also: nearly all actives have a fitted effect of over 60% in size; as to max response: % is scaled to controls: 0 for no effect and ±100 for the full control effect
HaCat [8] = assay: as above; details: Five cell lines viability, CellTiter-Glo ATP luminescence, 48-72 h; stronger effect = lower value
KB-3-1 = assay: as above; details: Five cell lines viability, CellTiter-Glo ATP luminescence, 48-72 h, stronger effect = lower value
HACAT [9] = assay: qHTS assay to identify novel small-molecules to repurpose for Merkel cell carcinoma treatment (AID 1296009); details: MCC and control cell lines, CellTiter-Glo viability, 72 h; at 44.8 µM (top of the series); also: nearly all actives have a fitted effect of over 60% in size
C33A = assay: Primary qHTS to identify gynecologic anti-cancer compounds using libraries of approved drugs and bioactive compounds (AID 1345084); details: Gynecologic cancer cell panel viability, ATPlite luminescence, 48 h; at 57.5 µM (top of the series) unless noted; also: % is scaled to controls: 0 for no effect and ±100 for the full control effect; nearly all actives have a fitted effect of over 55% in size
Summary of the method: (§1)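 Cells, 1,000 per well, were allowed to settle for 16 h at 37 C before compound addition. Five concentrations were tested for 48 h, and viability was read by ATPlite luminescence after 15 min at room temperature.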

CAOV3 = assay: as above; details: Gynecologic cancer cell panel viability, ATPlite luminescence, 48 h; at 57.5 µM (top of the series) unless noted
Summary of the method: as §1

CASKI = assay: as above; details: Gynecologic cancer cell panel viability, ATPlite luminescence, 48 h; at 57.5 µM (top of the series) unless noted
Summary of the method: as §1

Es-2 = assay: as above; details: Gynecologic cancer cell panel viability, ATPlite luminescence, 48 h; at 57.5 µM (top of the series) unless noted
Summary of the method: as §1

HeLa = assay: as above; details: Gynecologic cancer cell panel viability, ATPlite luminescence, 48 h; at 57.5 µM (top of the series) unless noted
Summary of the method: as §1

Hek293T = assay: as above; details: Gynecologic cancer cell panel viability, ATPlite luminescence, 48 h, control line for the selectivity index; at 57.5 µM (top of the series) unless noted
Summary of the method: as §1

JEG-3 = assay: as above; details: Gynecologic cancer cell panel viability, ATPlite luminescence, 48 h; at 57.5 µM (top of the series) unless noted
Summary of the method: as §1

OV90 = assay: as above; details: Gynecologic cancer cell panel viability, ATPlite luminescence, 48 h; at 57.5 µM (top of the series) unless noted
Summary of the method: as §1

PA-1 = assay: as above; details: Gynecologic cancer cell panel viability, ATPlite luminescence, 48 h; at 57.5 µM (top of the series) unless noted
Summary of the method: as §1

SKOV3 = assay: as above; details: Gynecologic cancer cell panel viability, ATPlite luminescence, 48 h; at 57.5 µM (top of the series) unless noted
Summary of the method: as §1

Tov-21-G = assay: as above; details: Gynecologic cancer cell panel viability, ATPlite luminescence, 48 h; at 57.5 µM (top of the series) unless noted
Summary of the method: as §1

Tov112D = assay: as above; details: Gynecologic cancer cell panel viability, ATPlite luminescence, 48 h; at 57.5 µM (top of the series) unless noted
Summary of the method: as §1

[10] = qHTS Assay for Inhibitors of Fructose-1,6-bisphosphate Aldolase from Giardia Lamblia: Giardia lamblia growth inhibition (AID 2785); details: Giardia lamblia trophozoite growth inhibition; at 38.3 µM (top of the series); also: % is scaled to controls: 0 for no effect and ±100 for the full control effect; nearly all actives have a fitted effect of over 70% in size
Summary of the method: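 Whole-parasite growth test: Giardia WB trophozoites in TYI-S-33 (pH 7.0), 100 per well, incubated 48 h at 37C with compound. ATP content was read by ATPlite luminescence.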

[11] = qHTS Assay for Inhibitors of Fructose-1,6-bisphosphate Aldolase from Giardia Lamblia: Mammalian cellular toxicity (AID 2786); details: mammalian cell viability counter-screen; at 57.5 µM (top of the series);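 also: compound exposure lasted 48 h before reading; % is scaled to controls: 0 for no effect and ±100 for the full control effect; nearly all actives have a fitted effect of over 60% in size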
Summary of the method: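 Mammalian cytotoxicity surrogate: Chinese hamster ovary cells exposed to compound for 48 h at 37 °C. Cellular ATP then measured with ATPlite reagent, 20 min incubation.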

[12] = molecular target: Fructose-bisphosphate aldolase (Giardia intestinalis (strain ATCC 50803 / WB clone C6)) (UniProt A8B2U2); assay: qHTS Assay for Inhibitors of Fructose-1,6-bisphosphate Aldolase from Giardia Lamblia: Primary screen confirmation (AID 2787); details: purified Giardia aldolase enzyme activity; at 57.5 µM (top of the series);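 also: aldolase product measured through coupled diaphorase step turning resazurin into fluorescent resorufin; % is scaled to controls: 0 for no effect and ±100 for the full control effect; nearly all actives have a fitted effect of over 45% in size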
Summary of the method: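 Confirmation of primary hits by qHTS up to 57.5 uM final compound. Enzyme at 40 nM with 30 uM ZnCl2, 10 min RT pre-incubation, then substrate/coupling/resorufin-forming detection mix for 20 min before fluorescence read at 525/598 nm.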

[13] = molecular target: Fructose-bisphosphate aldolase A (Oryctolagus cuniculus) (UniProt P00883); assay: qHTS Assay for Inhibitors of Fructose-1,6-bisphosphate Aldolase from Giardia Lamblia: Rabbit FBPA Selectivity (AID 2794); details: Rabbit muscle FBPA enzyme inhibition, selectivity counter-screen; at 57.5 µM (top of the series)
Summary of the method: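 Room-temperature coupled fluorescence assay using rabbit aldolase. Steps: coupling enzymes, compound (up to 57.5 uM final), 10 min; substrate plus detection reagent, 20 min; read 525/598 nm.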

[14] = qHTS Assay for Inhibitors of Fructose-1,6-bisphosphate Aldolase from Giardia Lamblia: Coupling assay counterscreen confirmation (AID 2795); details: GAPDH coupling enzyme counterscreen, biochemical; at 57.5 µM (top of the series); also: % is scaled to controls: 0 for no effect and ±100 for the full control effect; nearly all actives have a fitted effect of over 55% in size
Summary of the method: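 Primary-screen hits were tested against the coupling system alone (GAPDH-based, glyceraldehyde-3-phosphate), without aldolase. Compounds at up to 57.5 uM final were preincubated 10 min at RT with coupling enzymes, then substrate/detection mix (AmpLite Red) was added for 20 min at RT; fluorescence read at 525/598 nm.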

CCn1c(=O)n([C@@H]2CCN(CC3CCCCCCC3)C[C@H]2CO)c2ccccc21
inactive: activity change, negative = inhibition [1] 2.66% | activity change, negative = inhibition [2] 1.59% | activity change, negative = inhibition [3] 6.33% | outcome [4] | activity change, negative = thiol reactive [5] 37% | activity, negative = inhibition [6] 0.806% | Z-AUC [7] 0.124 | max response (CRL-7250) -0.459% | outcome (HaCat [8]) | max response (KB-3-1) -12.2% | outcome (HACAT [9]) | activity change, negative = cytotoxicity (C33A) -0.834% | activity change, negative = cytotoxicity (CAOV3) 4.7% | activity change, negative = cytotoxicity (CASKI) -1.7% | activity change, negative = cytotoxicity (Es-2) 3.52% | activity change, negative = cytotoxicity (HeLa) -3.61% | activity change, negative = cytotoxicity (Hek293T) 1.54% | activity change, negative = cytotoxicity (JEG-3) -10.7% | activity change, negative = cytotoxicity (OV90) -14.4% | activity change, negative = cytotoxicity (PA-1) -13.6% | activity change, negative = cytotoxicity (SKOV3) -13.4% | activity change, negative = cytotoxicity (Tov-21-G) -1.33% | activity change, negative = cytotoxicity (Tov112D) 1.89%

CC(C)(C)C(=O)NC(Sc1ccncn1)C(Cl)(Cl)Cl (stereo not drawn)
inactive: activity change, negative = inhibition [10] 6.82% | viability change, negative = toxicity [11] 7.38% | activity change, negative = inhibition [12] 3.89% | activity, negative = inhibition [13] 2.5% | activity change, negative = inhibition [14] -0.484%
